# Assay results published in PubChem BioAssay AID504707 (The Scripps Research Institute Molecular Screening Center, 2011).
# The list shows a part of the results, in another mix than the full data. Some results for these compounds are left out of this collection, so the calls shown say nothing about other tests. Active and inactive are the calls of the source.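 Rule for the calls: active = percent activation above the mean of all tested compounds plus 3 SD (cut at about 19% in these data); inactive = the rest.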
# Target: cAMP-dependent protein kinase type I-alpha regulatory subunit (Bos taurus) + cAMP-dependent protein kinase catalytic subunit beta (Mus musculus) (UniProt P00514+P68181)
# Experiment: compounds dissociating PKAc from R1A subunit – biochemical, fluorescence polarization, Cy5-IP20, bovine R1A, mouse PKAc, primary screen (AID 504707);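 note: higher means more PKAc released from R1A so a rise in polarization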
# Conditions: PKA-R1A dissociation, at 11.4 µM, active compounds read high, scaled: DMSO 0%, 113 µM cGMP 100%
row,SMILES,activation
1,Cc1ccccc1C(=O)NCC1(N2CCCCC2)CCCCC1,inactive: 0.65%
2,CN(C)C1CCCC1OC(=O)C(O)(c1ccccc1)c1ccccc1 (stereo unspecified),inactive: -0.37%
3,CN(C)c1ccc(C(=O)NCC2(N(C)C)CCCCC2)cc1,inactive: 7.95%
4,C=CCN1CCN(CCOC(=O)C(O)(c2ccccc2)c2ccccc2)CC1,inactive: -4.22%
5,O=C(NCC1(N2CCCCC2)CCCCC1)c1cc(F)c(F)cc1Cl,inactive: 2.7%
6,COc1ccc(C(=O)NCC2(N(C)C)CCCCC2)cc1,inactive: 11.6%
7,Cc1cc(C(=O)NCC2(N3CCCCC3)CCCCC2)ccc1[N+](=O)[O-],inactive: 0.16%
8,CCN1CCCC(OC(=O)C2(O)c3ccccc3C=Cc3ccccc32)C1 (stereo unspecified),inactive: -2.66%
9,O=C(NCC1(N2CCCCC2)CCCCC1)c1cccc(Br)c1,inactive: 2.91%
10,O=C(NCC1(N2CCCCC2)CCCCC1)c1cc([N+](=O)[O-])ccc1Cl,inactive: 8.15%
11,CN1[C@@H]2CC[C@H]1CC(OC(=O)C(O)(c1ccccc1)c1ccccc1)C2 (stereo partly specified),inactive: 1.11%
12,CCN(CC)CC(C)C(C)OC(=O)C(O)(c1ccccc1)c1ccccc1 (stereo unspecified),inactive: 5.32%
13,COc1cc(SC)ccc1C(=O)NCC1(N(C)C)CCCCC1,inactive: -4.94%
14,CC(C)N1C(=O)CC2(CCN(CCOC(=O)C(O)(c3ccccc3)c3ccccc3)CC2)C1=O,inactive: 1.97%
15,Cc1ccc(C(=O)NCC2(N3CCCCC3)CCCCC2)cc1,inactive: 2.09%
16,O=C(OC1CN2CCC1CC2)C(CO)(c1ccccc1)c1ccccc1 (stereo unspecified),inactive: -0.53%
17,C=C(C)C#CC(O)(C(=O)OC1CCN(C)CC1)c1ccccc1 (stereo unspecified),inactive: 6.06%
18,COc1ccc(Br)c(C(=O)NCC2(N3CCCCC3)CCCCC2)c1,inactive: -6.37%
19,CC(C)Oc1ccc(C(=O)NCC2(N(C)C)CCCCC2)cc1,inactive: -3.9%
20,O=C(OCCN1CCCC1)C(O)(c1ccccc1)c1ccccc1,inactive: -7.38%
21,CN(C)c1cccc(C(=O)NCC2(N(C)C)CCCCC2)c1,inactive: -1.37%
22,CN(C)C1(CNC(=O)c2ccc(Br)cc2)CCCCC1,inactive: -6.42%
23,COc1cc(C(=O)NCC2(N(C)C)CCCCC2)c([N+](=O)[O-])cc1OC,inactive: -7.38%
24,COc1cccc(C(=O)NCC2(N3CCCCC3)CCCCC2)c1,inactive: 4.23%
25,COc1ccc(Cl)cc1C(=O)NCC1(N(C)C)CCCCC1,inactive: -1.32%
26,O=C(NCC1(N2CCCCC2)CCCCC1)c1cccc(Cl)c1,inactive: -4.43%
